Values quoted from earlier work, collected in patent US11191762B2, “Alkyl substituted triazole compounds as agonists of the APJ Receptor” (priority 2016, dated 2021).

Details: cited from earlier work

Substance: Apelin-13
- plasma half-life: < 5 min
